# Results taken from patent US20210122804A1, “PEPTIDE LIGANDS FOR BINDING TO CD38” (BicycleTx Limited, priority 2018, published 2021).
# Sequences of proteins named here, by UniProt entry; tags and fusion partners are left off. Residues count along the entry.
# UniProt P28907, whole entry: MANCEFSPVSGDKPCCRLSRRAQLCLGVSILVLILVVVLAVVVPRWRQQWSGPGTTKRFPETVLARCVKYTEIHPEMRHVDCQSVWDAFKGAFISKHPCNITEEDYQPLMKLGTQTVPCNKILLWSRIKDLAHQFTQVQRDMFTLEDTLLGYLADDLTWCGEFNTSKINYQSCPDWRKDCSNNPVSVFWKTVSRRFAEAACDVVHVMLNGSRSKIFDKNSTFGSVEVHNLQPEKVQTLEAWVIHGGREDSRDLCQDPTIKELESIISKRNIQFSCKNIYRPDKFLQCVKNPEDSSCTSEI
# UniProt P28907, 43-300 limits assumed: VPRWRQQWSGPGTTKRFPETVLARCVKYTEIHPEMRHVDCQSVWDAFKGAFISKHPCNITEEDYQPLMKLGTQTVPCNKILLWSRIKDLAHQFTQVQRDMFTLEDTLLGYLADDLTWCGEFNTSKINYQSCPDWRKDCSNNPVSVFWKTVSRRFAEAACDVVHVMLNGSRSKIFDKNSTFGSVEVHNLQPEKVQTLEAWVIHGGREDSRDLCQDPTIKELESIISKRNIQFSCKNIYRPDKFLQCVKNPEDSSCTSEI
# Molecular target: human CD38 (Homo sapiens, UniProt P28907)
# Test: CD38 Competition Binding Assay (fluorescence polarisation)
# Settings: Table 1; TBMB derivatives; average of two measurements; tracer ACTPCADFPIWGCA-Sar6-K(F1); read-out: Ki
# Protocol: CD38 Competition Binding Assay Affinity of various bicycle peptide compounds for human CD38 (Ki) was determined using a fluorescence polarisation assay, using the method reported by Lea et al (Expert Opin Drug Discov. 2011 6(1): 17-3) and using the following fluorescently labelled peptides ACTPCADFPIWGCA-Sar6-K(F1) for TBMB derivatives and ACYWNPFTGCYTCA-Sar6-K(F1) for TATA derivatives where Fl is a fluorescein molecule.
row,Molecule,Ki
1,[Ac]ACVP[Dap(Me)]ADFPIWYC [BCY00009247],> 9400 nM
2,[Ac]ACVPCADFPIWYC [BCY00009245],26.8 nM

# Same assay, conditions: Table 2; reference bicycle ligands, TBMB or TATA scaffold (tracer differs by scaffold); evaluated as described in GB1800610.6
row,Molecule,Ki
1,ACTWCVDDGLSFCA [Example 66-10-N001],270 nM
2,ACVPCADFPISVCA [66-03-27-N003],143 ± 27.4 nM
3,ACFWLDHECFDWTHECA [66-08-15-N001],258 nM
4,ACFKLDGECFDWTHECA [66-08-06-N001],677 nM
5,ACFVLDGECFDYYEECA [66-08-27-N001],1220 nM
6,ACFELDGECFSWPYPCA [66-08-51-N001],4750 ± 490 nM
7,ACYWNPFTACYTCA [66-50-05-N001],438 ± 192 nM
8,ACVPCADFPIWWCA [66-03-00-N005],110 ± 51 nM
9,ACYWNPFTACWACEPD [66-50-20-T001-N001],85 ± 116 nM
10,ACFQLDGECFDTSHECA [66-08-24-N001],2970 nM
11,ACGWCSDQIDGFCA-Sar6-K(Biotin) [66-10-01-N001],2960 nM
12,ACFELDGSCFDFDHECA [66-08-09-N001],611 nM
13,Ac-ACFHLDGECFDLENTCA-Sar6-K(Biot) [66-08-01-N003],38.5 ± 10.8 nM
14,ACYWNPFTACFACEEP [66-50-21-T001-N001],337 ± 229 nM
15,ACYWNPFTGCYACEAD [66-50-15-T02-N001],179 ± 125 nM
16,ACIPCADFPISFCA [66-03-26-N003],160 ± 13.7 nM
17,ACFWLDGECFDWNHECA [66-08-01-N001],43.3 ± 7.69 nM
18,ACTPCADFPIWGCA [Example 66-03-N002],198 ± 29.1 nM
19,ACLYNPFTGCYDCA [66-50-09-N001],749 ± 64.7 nM
20,ACFHLDGVCFDWTHECA [66-08-36-N001],558 nM
21,ACFTLDGACFDLDGECA [66-08-31-N001],821 nM
22,ACFTLDGQCFDWTHECA [66-08-32-N001],794 nM
23,ACTPCADMPIWTCA [66-03-15-N001],274 nM

row,Molecule,Ki
1,ACFWLDGECFDFGGCA [66-08-58-N001],154 ± 17.6 nM
2,ACVMCADFPIWGCA [66-03-05-N001],155 nM
3,ACFQLDGECFDIYRECA [66-08-17-N001],245 nM
4,Ac-CVKCADFPIWGC [66-03-11-N002],298 nM
5,ACFRLDGECFDISNECA [66-08-56-N001],1150 ± 149 nM
6,ACMWNPFTGCYACA [66-50-08-N001],158 ± 68.2 nM
7,Ac-CFWLDGECFDWNHEC [66-08-01-N004],99 nM
8,ACFTLDGECFDWDAECA [66-08-07-N001],230 nM
9,ACDWCTDNIPGICA [Example 66-13-N001],357 nM
10,ARNECFWNPFTGCYSCA [66-50-17-T02-N001],260 ± 161 nM
11,ACFTLDGECFDVNRECA [66-08-13-N001],905 nM
12,ACIPCADFPISVCA [66-03-24-N003],170 ± 20.6 nM
13,ACFTLDGECFDLDGWCA [66-08-48-N001],178 ± 60.8 nM
14,ACFSLDGECFDIASECA [66-08-22-N001],1050 nM
15,ACYWNPFAACYDCA [66-50-06-N001],935 nM
16,ACFHLDGECFDLENTCA [66-08-44-N001],620 nM
17,ACFVLDGECFEIGERCA [66-08-47-N001],237.5 ± 0.98 nM
18,ASDNCFWNPFTGCYSCA [66-50-17-T01-N001],358 ± 187 nM
19,ACIFDYDCDAWSACA [Example 66-06-N002],7250 nM
20,ACVPCADFPIWGCA [66-03-04-N001],58.5 ± 33.9 nM
21,ACFTLDGACFDWTHECA [Example 66-08-N002],1100 nM
22,ACFELDGNCFDWTHECA [66-08-18-N001],980 nM
23,Ac-CVPCADFPIWYCA-Sar6-K [66-03-00-N008],73 nM

row,Molecule,Ki
1,ACIPCADFPIWGCA [66-03-16-N001],114 nM
2,ACSWCVDDGLPFCA-Sar6-K(Biotin) [66-10-04-N001],3920 nM
3,ACFHLDGECFDYEHECA [66-08-20-N001],2160 nM
4,ACDFTMPCPNWNACA [66-05-09-N001],3950 nM
5,ACFWLDGECFDLYGGCA [66-08-55-N001],105 ± 1.96 nM
6,ACVPCADFPIWYCA [66-03-00-N004],35.3 ± 6.55 nM
7,ACFLLDGECFDWMQECA [66-08-33-N001],409 nM
8,ACAWCSDPIDGFCA-Sar6-K(Biotin) [66-10-02-N001],2550 nM
9,ACFTLDGTCFDWTHECA [66-08-35-N001],744 nM
10,Ac-CFWLDGECFDWNHECA-Sar6-K(DOTA) [66-08-01-N016],51 nM
11,ACFELDGDCFDWTHECA [66-08-34-N001],1620 nM
12,ACFRLDGECFDMGQECA [66-08-30-N001],6950 nM
13,Ac-CFWLDGECFDWNHECA-Sar6-K [66-08-01-N005],211 nM
14,ACFTLDGECFDWTHECA [66-08-03-N001],139 nM
15,ACYWNPFMGCYTCA [66-50-01-N001],393 ± 141 nM
16,ACYWNPFTACFSCDDD [66-50-18-T01-N001],77.5 ± 51.9 nM
17,ACFSLDGECFDLSGECA [66-08-02-N001],305 nM
18,ACFKLDGVCFDLFHECA [66-08-04-N001],3820 nM
19,ACDFTMPCQMWEQCA [Example 66-05-N002],4060 ± 75.5 nM
20,ACTPCADFPIWYCA [66-03-06-N001],64 ± 8.21 nM
21,ACIRYGDICYDPDHSCA [66-17-01-N001],260 nM
22,ACYWNPFTACWSCDTS [66-50-22-T001-N001],182 ± 46.1 nM
23,ACINYANICLDTEKMCA [Example 66-18-N001],6890 nM

# Same assay, conditions: first measurement; read-out: measured affinity (Ki) to CD38
row,Molecule,Ki
1,[Ac]ACVPCADFPIWYC [BCY00009245],35 nM

# Same assay, conditions: repeat measurement (n=2), mean; read-out: affinity (Ki) to CD38, mean value of repeat measurement
row,Molecule,Ki
1,[Ac]ACVPCADFPIWYC [BCY00009245],27 nM

# Molecular target: T1, human CD38 (human, UniProt P28907 43-300, limits assumed)
# T1 construct: construct used is not described; also called hCD38
# Test: fluorescence polarisation competition; tracer m10
# Settings: not given
row,Ki,Molecule
1,357 nM,"ACDWCTDNIPGICA (three Cys thioether-linked to TBMB scaffold, bicyclic) [66-13-N001]"
2,260 nM,"ACIRYGDICYDPDHSCA (three Cys thioether-linked to TBMB scaffold, bicyclic) [66-17-01-N001]"
3,139 nM,"ACFTLDGECFDWTHECA (three Cys thioether-linked to TBMB scaffold, bicyclic) [66-08-03-N001]"
4,744 nM,"ACFTLDGTCFDWTHECA (three Cys thioether-linked to TBMB scaffold, bicyclic) [66-08-35-N001]"
5,987 nM,"ACFSLDGACFDWTHECA (three Cys thioether-linked to TBMB scaffold, bicyclic) [66-08-26-N001]"
6,794 nM,"ACFTLDGQCFDWTHECA (three Cys thioether-linked to TBMB scaffold, bicyclic) [66-08-32-N001]"
7,1100 nM,"ACFTLDGACFDWTHECA (three Cys thioether-linked to TBMB scaffold, bicyclic) [66-08-N002]"
8,677 nM,"ACFKLDGECFDWTHECA (three Cys thioether-linked to TBMB scaffold, bicyclic) [66-08-06-N001]"
9,1200 nM,"ACFYLDGTCFDWTHECA (three Cys thioether-linked to TBMB scaffold, bicyclic) [66-08-41-N001]"
10,1260 nM,"ACDYCVRLGLTGCA (three Cys thioether-linked to TBMB scaffold, bicyclic) [66-09-N001]"
11,520 nM,"ACDYCIRLGLTGCA (three Cys thioether-linked to TBMB scaffold, bicyclic) [66-12-N001]"
12,3660 nM,"ACVNFGSVCWDPDSRCA (three Cys thioether-linked to TBMB scaffold, bicyclic) [66-02-N002]"
13,767 nM,"ACTWCVDDETWNCA (three Cys thioether-linked to TBMB scaffold, bicyclic) [66-11-N001]"
14,257 nM,"ACTPCADFPILTCA (three Cys thioether-linked to TBMB scaffold, bicyclic) [66-03-07-N001]"
15,1180 nM,"ACFELDGTCFDWAQECA (three Cys thioether-linked to TBMB scaffold, bicyclic) [66-01-N002]"
16,58.5 nM,"ACVPCADFPIWGCA (three Cys thioether-linked to TBMB scaffold, bicyclic) [66-03-04-N001]"
17,41.3 nM,"ACVKCADFPIWGCA (three Cys thioether-linked to TBMB scaffold, bicyclic) [66-03-11-N001]"
18,61 nM,"ACVHCADFPIWGCA (three Cys thioether-linked to TBMB scaffold, bicyclic) [66-03-03-N001]"
19,110 nM,"ACVPCADFPIWWCA (three Cys thioether-linked to TBMB scaffold, bicyclic) [66-03-00-N005]"
20,198 nM,"ACTPCADFPIWGCA (three Cys thioether-linked to TBMB scaffold, bicyclic) [66-03-N002]"
21,174 nM,"ACVACADFPIWGCA (three Cys thioether-linked to TBMB scaffold, bicyclic) [66-03-08-N001]"
22,471 nM,"ACTPCADFPIWSCA (three Cys thioether-linked to TBMB scaffold, bicyclic) [66-03-01-N001]"
23,35.3 nM,"ACVPCADFPIWYCA (three Cys thioether-linked to TBMB scaffold, bicyclic) [66-03-00-N004]"
24,114 nM,"ACIPCADFPIWGCA (three Cys thioether-linked to TBMB scaffold, bicyclic) [66-03-16-N001]"
25,1050 nM,"ACTPCADFPIYGCA (three Cys thioether-linked to TBMB scaffold, bicyclic) [66-03-09-N001]"
26,155 nM,"ACVMCADFPIWGCA (three Cys thioether-linked to TBMB scaffold, bicyclic) [66-03-05-N001]"
27,64 nM,"ACTPCADFPIWYCA (three Cys thioether-linked to TBMB scaffold, bicyclic) [66-03-06-N001]"
28,270 nM,"ACTWCVDDGLSFCA (three Cys thioether-linked to TBMB scaffold, bicyclic) [66-10-N001]"
29,6890 nM,"ACINYANICLDTEKMCA (three Cys thioether-linked to TBMB scaffold, bicyclic) [66-18-N001]"
30,1170 nM,"ACIRYGDICFHPDYTCA (three Cys thioether-linked to TBMB scaffold, bicyclic) [66-17-N001]"
